AlphaSeq binding of Ab-14 light chain variants to a spike HR2 peptide

The measurements come from Engelhart et al. 2022 (doi:10.1038/s41597-022-01779-4) through the FLAb antibody collection.

Target: peptide PDVDLGDISGINAS, taken from heptad repeat 2 (HR2) of SARS-CoV-2 spike.

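The starting antibody came from a phage panning campaign against this peptide. Library AAYL50 holds single substitutions and randomly drawn double and triple substitutions in the CDRs. The assay is AlphaSeq: two haploid yeast populations carry antibody and antigen on their surface. Mating (16 h, 30 °C) was followed by selection of diploids and sequencing of their barcodes. A regression on co-assayed BCL2-family reference pairs converts the normalised counts of each replicate to an apparent Kd. Each pool was mated in three replicate cultures.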

The variants keep the heavy chain, the linker and the frameworks of Ab-14 (scFv order VH, the linker GGGGSGGGGSGGGGS, VL).
VH: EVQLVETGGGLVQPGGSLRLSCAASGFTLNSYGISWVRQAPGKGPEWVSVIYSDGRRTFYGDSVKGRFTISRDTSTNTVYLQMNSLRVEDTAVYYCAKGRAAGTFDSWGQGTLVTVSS
VL: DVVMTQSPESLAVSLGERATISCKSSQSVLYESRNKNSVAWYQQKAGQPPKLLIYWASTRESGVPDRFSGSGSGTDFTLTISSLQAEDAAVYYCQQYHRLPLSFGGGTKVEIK

Substitutions are numbered in sequence along the VL above, starting at 1 (not Kabat). The read-out is the apparent dissociation constant on a log10 scale (nM): the lower, the stronger. Replicates are averaged; those with no signal do not enter the mean. A pair that was not seen in any replicate is written "nd"; this usually means weak binding, but a binder can also be missed. Three control strains display no target. For library AAYL50, 18% of the pairings with them gave a signal, with a median of 4.19 and one signal in twenty below 2.99, so weak values seen in few replicates may be background.

changes | mean, log10 nM | seen in
E32R/K36T/T59A | 1.89 | 3/3
N35I/R60L/E61W | nd | 0/3
E32G/Q96K/H98Q | nd | 0/3
Y31D/V39L/L102P | 0.80 | 3/3
L30S/S103N | 1.20 | 3/3
W56C/S58R/R99Q | 2.52 | 3/3
L30Q/W56Q/E61M | 0.10 | 3/3
V29C/R34Q/P101H | nd | 0/3
S25N/H98Q/P101I | 0.61 | 3/3
S28R/W56Y/Q96E | 1.99 | 3/3
V29G/A57P/E61T | nd | 0/3
Y97G/L100M | nd | 0/3
S26Y/Q27K/S28Q | 3.22 | 2/3
S28L/T59D/S62F | 3.56 | 2/3
E61F/R99M/P101S | nd | 0/3
K24R/S25C/S62A | 0.33 | 3/3
R34N/L102W | nd | 0/3
S26E/L30F/Q96V | 1.18 | 3/3
A40M/W56R/H98S | 4.64 | 2/3
S33I/K36D/N37W | 2.24 | 3/3
S25F/S28C/S58R | 2.14 | 3/3
S28G/T59N/H98S | 1.78 | 3/3
N35K/A40D | 4.01 | 1/3

Continued, with the values leading:

mean, log10 nM | seen in | changes
nd | 0/3 | N37P/S62V/Q95I
3.95 | 3/3 | W56E/A57P/R99N
2.07 | 3/3 | N37L/Q95I/P101E
nd | 0/3 | L30F/Q95N/L100S
nd | 0/3 | K24L/N35P/A40K
nd | 0/3 | A57M/S58R/L100Q
0.11 | 3/3 | Y31Q/R34L
nd | 0/3 | Q27T/A40V/S58I
2.32 | 3/3 | S25W/H98C/R99S
5.27 | 1/3 | Q27G/R60D/S103P
4.42 | 2/3 | S33D/R60A/S103T
1.73 | 3/3 | Q27G/E32G/N35E
1.87 | 3/3 | V39I/R99V/L100H
3.93 | 1/3 | S28M/S38P/Y97I
nd | 0/3 | Y31P/V39A/S103N
nd | 0/3 | A40N/Q96W/H98M
0.64 | 3/3 | K36H/Q95F/L102C
nd | 0/3 | S28P/S38Y/P101G
nd | 0/3 | S28Q/N35M/A40I
4.21 | 1/3 | V39A/A57F/S58I
1.12 | 3/3 | N35Q/A57S/H98M
3.30 | 3/3 | K24W/T59S/H98F
nd | 0/3 | Q95Y/P101T

Excerpt, the first 6 entries:

{"changes": "E32R/K36T/T59A", "mean, log10 nM": "1.89", "seen in": "3/3"}
{"changes": "N35I/R60L/E61W", "mean, log10 nM": "nd", "seen in": "0/3"}
{"changes": "E32G/Q96K/H98Q", "mean, log10 nM": "nd", "seen in": "0/3"}
{"changes": "Y31D/V39L/L102P", "mean, log10 nM": "0.80", "seen in": "3/3"}
{"changes": "L30S/S103N", "mean, log10 nM": "1.20", "seen in": "3/3"}
{"changes": "W56C/S58R/R99Q", "mean, log10 nM": "2.52", "seen in": "3/3"}

For reference, the parent read 0.65 as the reference entry and 1.68 as a member of this library.